Source: patent publication US6545010B2, “Composition comprising camptothecin or a camptothecin derivative and a platin derivative for the treatment of cancer” (priority 2000, dated 2003)

Test system: Colon Adenocarcinoma C51
Experiment: CPT-11, cisplatin and combination, three-arm study in mice bearing colon adenocarcinoma C51
Description: This efficacy may be quantified, for example, by the log10 cell kill, which is determined by the following formula: […]
An agent is considered to be active if log10 cell kill is greater than or equal to 0.7. An agent is considered to be very active if the log10 cell kill is greater than 2.8.
In the first arm, four dose levels of CPT-11 were given orally on days four through seven, twice daily. […] This third arm illustrated an example of semi-simultaneous administration.
The LD10 for the single agent was obtained by plotting the toxicity of that agent and the dosage in mg/kg as a log probit graph. Subsequently, the CTI LD10 was obtained by plotting as a log probit graph the observed lethality and the corresponding CTI calculated as the sum of the fraction of the LD10 of each single agent.

In the case of N.N.[Cl][Pt][Cl] [Cisplatin, cis-diaminedichloroplatinum], the Comments (Cisplatin i.v. 1.9 mg/kg/adm, days 4, 7) is reported as “Active”, the Comments (Cisplatin i.v. 3.1 mg/kg/adm, days 4, 7) is reported as “HNTD Highly Active” and the Comments (mouse, in vivo, iv, 8 mg/kg) is reported as “Toxic”.
